The list shows a part of the results, in another mix than the full data. Results filed as inconclusive are left out. The source made the active and inactive calls.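 Rule for the calls: active = fitted dose curve passes 500% activation at or below the top valid tested dose; inconclusive = no clear call, values can overlap the other calls; inactive = the rest, opposite-direction activity included.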
Assay: activation of hypoxia-responsive element reporter – cell-based, U2OS, luminescence, dry powder, set 7, dose response (AID 493235)
Details: U2OS HRE-luciferase reporter, at 38 µM (top of the series)
Outline: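 Test system – human U2OS osteosarcoma cells stably expressing 3×HRE-driven luciferase reporter · Quantity – 6,000 cells/well · Medium – DMEM without phenol red, with 10% fetal bovine serum · Compound – 8 concentrations, 3-fold steps · Times – cells grown 24 h before dosing, compound exposure 24 h at 37 °C · Detection – luminescence with Steady-Glo luciferase reagent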

## O=c1[nH]c2ccccc2n1C1CCN(Cc2ccc(O)c3ncccc23)CC1
  activation: inactive: 79.7%

— PubChem BioAssay AID493235 (Broad Institute, 2011)
